# Experimental data published in PubChem BioAssay.
# Amino acid sequences for entries named in this document (tags omitted). A change or cut given only in a name is not applied to a line headed by its entry.
# UniProt Q8NFQ8: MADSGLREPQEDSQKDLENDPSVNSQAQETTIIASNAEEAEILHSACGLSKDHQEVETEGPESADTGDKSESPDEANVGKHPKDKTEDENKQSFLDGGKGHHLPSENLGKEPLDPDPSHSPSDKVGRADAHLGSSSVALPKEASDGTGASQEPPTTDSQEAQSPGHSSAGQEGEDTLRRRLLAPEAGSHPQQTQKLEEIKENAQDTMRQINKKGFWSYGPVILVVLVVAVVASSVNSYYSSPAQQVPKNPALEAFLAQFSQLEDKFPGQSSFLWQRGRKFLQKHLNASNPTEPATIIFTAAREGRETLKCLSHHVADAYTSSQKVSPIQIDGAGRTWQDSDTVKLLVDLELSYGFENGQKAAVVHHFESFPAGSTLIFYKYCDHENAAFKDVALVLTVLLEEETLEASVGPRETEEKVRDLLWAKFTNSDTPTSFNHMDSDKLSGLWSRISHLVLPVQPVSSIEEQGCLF
# UniProt Q9UM47, whole entry, looked up: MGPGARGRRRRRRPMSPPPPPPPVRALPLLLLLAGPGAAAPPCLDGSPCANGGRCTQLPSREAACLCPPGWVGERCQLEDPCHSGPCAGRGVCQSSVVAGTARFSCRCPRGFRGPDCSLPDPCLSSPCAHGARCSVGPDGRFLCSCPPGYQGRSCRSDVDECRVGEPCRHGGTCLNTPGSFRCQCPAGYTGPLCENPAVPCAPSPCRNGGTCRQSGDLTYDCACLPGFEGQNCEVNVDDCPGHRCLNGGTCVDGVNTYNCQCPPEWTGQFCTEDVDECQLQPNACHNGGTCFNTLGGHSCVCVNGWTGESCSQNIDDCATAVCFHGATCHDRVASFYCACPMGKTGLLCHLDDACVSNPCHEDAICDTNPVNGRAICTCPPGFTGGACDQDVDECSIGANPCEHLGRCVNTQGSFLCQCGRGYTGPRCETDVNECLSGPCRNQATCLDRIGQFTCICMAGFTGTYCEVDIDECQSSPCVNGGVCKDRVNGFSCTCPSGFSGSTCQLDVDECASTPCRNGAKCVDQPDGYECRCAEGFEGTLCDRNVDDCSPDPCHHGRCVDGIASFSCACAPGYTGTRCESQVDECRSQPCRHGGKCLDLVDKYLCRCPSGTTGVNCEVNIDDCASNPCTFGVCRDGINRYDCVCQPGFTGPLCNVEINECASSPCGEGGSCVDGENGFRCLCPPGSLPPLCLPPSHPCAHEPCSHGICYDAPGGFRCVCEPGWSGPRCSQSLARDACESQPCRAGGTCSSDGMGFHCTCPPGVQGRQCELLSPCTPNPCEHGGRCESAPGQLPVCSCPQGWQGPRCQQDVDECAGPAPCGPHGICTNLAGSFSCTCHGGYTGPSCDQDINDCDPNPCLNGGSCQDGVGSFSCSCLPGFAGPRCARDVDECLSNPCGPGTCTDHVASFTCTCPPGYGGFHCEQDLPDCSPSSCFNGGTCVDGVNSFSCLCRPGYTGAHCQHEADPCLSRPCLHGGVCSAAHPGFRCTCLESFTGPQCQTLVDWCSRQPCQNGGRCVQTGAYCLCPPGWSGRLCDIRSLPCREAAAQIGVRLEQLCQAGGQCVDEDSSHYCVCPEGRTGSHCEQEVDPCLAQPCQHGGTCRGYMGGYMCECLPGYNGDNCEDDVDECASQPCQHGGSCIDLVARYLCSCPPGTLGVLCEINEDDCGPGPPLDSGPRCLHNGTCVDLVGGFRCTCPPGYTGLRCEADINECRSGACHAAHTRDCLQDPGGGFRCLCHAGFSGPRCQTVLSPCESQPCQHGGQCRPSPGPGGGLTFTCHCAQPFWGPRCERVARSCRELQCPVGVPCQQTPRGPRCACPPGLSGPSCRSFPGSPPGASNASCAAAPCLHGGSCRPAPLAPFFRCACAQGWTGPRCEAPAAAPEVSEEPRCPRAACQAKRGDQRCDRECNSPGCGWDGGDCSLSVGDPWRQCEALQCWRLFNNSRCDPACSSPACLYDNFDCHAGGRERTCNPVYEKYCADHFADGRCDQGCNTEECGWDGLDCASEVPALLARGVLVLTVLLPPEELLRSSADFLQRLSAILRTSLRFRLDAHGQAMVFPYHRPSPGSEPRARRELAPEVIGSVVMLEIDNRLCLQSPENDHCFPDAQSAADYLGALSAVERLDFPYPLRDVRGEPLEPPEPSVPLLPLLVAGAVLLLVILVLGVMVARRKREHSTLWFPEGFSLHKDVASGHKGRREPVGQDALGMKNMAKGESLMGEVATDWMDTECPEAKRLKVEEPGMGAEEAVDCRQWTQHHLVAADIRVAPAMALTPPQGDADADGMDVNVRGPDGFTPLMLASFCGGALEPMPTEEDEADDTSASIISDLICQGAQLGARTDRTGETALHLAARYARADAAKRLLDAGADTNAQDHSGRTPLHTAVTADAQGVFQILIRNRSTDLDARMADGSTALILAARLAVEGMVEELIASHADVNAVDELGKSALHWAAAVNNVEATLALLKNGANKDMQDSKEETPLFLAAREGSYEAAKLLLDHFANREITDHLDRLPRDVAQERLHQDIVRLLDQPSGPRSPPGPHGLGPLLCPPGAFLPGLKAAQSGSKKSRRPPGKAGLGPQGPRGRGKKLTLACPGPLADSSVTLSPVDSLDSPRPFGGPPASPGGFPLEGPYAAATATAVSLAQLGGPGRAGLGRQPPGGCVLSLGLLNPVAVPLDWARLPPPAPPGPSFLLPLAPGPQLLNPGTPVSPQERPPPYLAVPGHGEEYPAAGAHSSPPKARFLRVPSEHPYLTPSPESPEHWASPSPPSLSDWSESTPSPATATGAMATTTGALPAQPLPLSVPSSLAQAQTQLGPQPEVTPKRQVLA
# UniProt O15520: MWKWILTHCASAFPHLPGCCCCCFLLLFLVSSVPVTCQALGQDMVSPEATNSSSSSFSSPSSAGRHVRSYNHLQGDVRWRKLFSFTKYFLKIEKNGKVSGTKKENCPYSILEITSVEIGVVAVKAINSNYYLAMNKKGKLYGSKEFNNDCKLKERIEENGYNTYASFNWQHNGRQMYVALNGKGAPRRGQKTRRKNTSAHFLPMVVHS
# UniProt O95633: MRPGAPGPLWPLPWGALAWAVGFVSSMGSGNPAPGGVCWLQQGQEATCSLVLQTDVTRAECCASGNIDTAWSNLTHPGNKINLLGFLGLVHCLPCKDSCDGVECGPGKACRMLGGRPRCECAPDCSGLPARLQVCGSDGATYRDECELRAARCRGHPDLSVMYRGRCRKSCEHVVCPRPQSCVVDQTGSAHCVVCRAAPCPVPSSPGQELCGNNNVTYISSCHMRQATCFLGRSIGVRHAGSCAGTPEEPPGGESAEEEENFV
# UniProt O94907: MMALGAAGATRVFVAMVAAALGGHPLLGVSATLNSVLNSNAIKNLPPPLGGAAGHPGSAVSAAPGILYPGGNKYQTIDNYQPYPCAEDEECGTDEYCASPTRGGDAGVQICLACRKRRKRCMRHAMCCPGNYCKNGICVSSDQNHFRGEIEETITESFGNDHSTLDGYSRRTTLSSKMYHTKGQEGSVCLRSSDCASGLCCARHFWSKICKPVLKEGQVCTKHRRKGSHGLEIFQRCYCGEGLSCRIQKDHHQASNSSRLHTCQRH
# UniProt O00292: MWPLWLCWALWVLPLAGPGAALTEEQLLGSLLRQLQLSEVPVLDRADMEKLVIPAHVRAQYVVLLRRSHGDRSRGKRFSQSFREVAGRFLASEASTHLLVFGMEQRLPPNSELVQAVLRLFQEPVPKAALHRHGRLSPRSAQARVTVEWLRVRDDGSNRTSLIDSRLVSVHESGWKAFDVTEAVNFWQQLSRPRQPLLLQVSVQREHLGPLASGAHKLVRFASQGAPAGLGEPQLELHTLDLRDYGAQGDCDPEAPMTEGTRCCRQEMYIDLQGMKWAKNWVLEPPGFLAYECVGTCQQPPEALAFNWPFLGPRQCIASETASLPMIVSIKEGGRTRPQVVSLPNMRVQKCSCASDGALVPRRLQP
# The list shows a part of the results, in another mix than the full data. Calls of active or inactive are those of the source.
# Key:
# [1] = tested on: PRMT1 (protein arginine N-methyltransferase 1); assay: small molecules binding arginine methyltransferase PRMT1 – biochemical, small-molecule microarray, 635 nm fluorescence, primary screen (AID 1088); settings: higher = more signal;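 note: binding of Prmt1 protein to compounds spotted on small-molecule microarray slides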
# [2] = growth effects on S. cerevisiae YJM789 – YJM789 clinical isolate, OD600, 24 h, basal, primary screen (AID 1089); settings: higher = more signal, called active from +8 up or from −8 down;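 note: growth of clinical yeast isolate S. cerevisiae YJM 789 seeded 1000 cells per well; test concentration not given here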
# [3] = target: Torsin-1A-interacting protein 2 (Homo sapiens) (UniProt Q8NFQ8); assay: small molecules binding lysate-expressed LULL1 – cell lysate, human LULL1 lysate, 635/667 nm fluorescence, primary screen (AID 1092); settings: small-molecule microarray, hLULL1 lysate binding, 635 nm fluorescence; higher = more signal;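 note: probe is lysate of COS7 cells overexpressing human LULL1; score merges per-feature 667 nm fluorescence with signal-to-noise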
# [4] = probe aLefty2 binding to arrayed compounds – biochemical, biotinylated probe, 635/667 nm fluorescence, primary screen (AID 1094); settings: small-molecule microarray, higher = more signal;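 note: score merges spot fluorescence near 667 nm with spot signal-to-noise ratio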
# [5] = tested on: Noggin (protein binding on small-molecule microarray); assay: small molecules binding Noggin protein – biochemical, 635/667 nm fluorescence, primary screen (AID 1095); settings: 635 nm fluorescence, higher = more signal;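 note: score merges 667 nm feature fluorescence with signal to noise over triplicate slides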
# [6] = target: Neurogenic locus notch homolog protein 3 (Homo sapiens) (UniProt Q9UM47); assay: small molecules binding NOTCH3 protein – biochemical, 635/667 nm fluorescence, primary screen (AID 1096); settings: small-molecule microarray, 635 nm fluorescence, higher = more signal
# [7] = probe aEGFR binding to arrayed compounds – biochemical, biotinylated probe, 635/667 nm fluorescence, primary screen (AID 1097); settings: small-molecule microarray, higher = more signal;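 note: probe is a biotinylated anti-EGFR antibody binding compounds printed on slides; score combines fluorescence near 667 nm and signal to noise of each spot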
# [8] = probe aDKK1 binding to arrayed compounds – biochemical, biotinylated probe, 635/667 nm fluorescence, primary screen (AID 1099); settings: small-molecule microarray, higher = more signal;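 note: score merges 667nm spot fluorescence with signal to noise across triplicate slides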
# [9] = probe aCHRDL2 binding to arrayed compounds – biochemical, biotinylated probe, 635/667 nm fluorescence, primary screen (AID 1100); settings: small-molecule microarray, higher = more signal
# [10] = change in splice reporter luminescence, either direction, cell-based, HEK293, spliceosome inhibition project, primary screen (AID 1101); settings: HEK293 splicing luciferase reporter, 24 h, higher = more signal, called active from +8 up or from −8 down;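 note: HEK293 cells carrying a splicing-competent luciferase reporter gene; test concentration not given here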
# [11] = target: Fibroblast growth factor 10 (Homo sapiens) (UniProt O15520); assay: compounds binding fibroblast growth factor 10 – biochemical, small-molecule microarray, 635 nm fluorescence, primary screen (AID 1102); settings: FGF10 binding, fluorescence 635 nm, higher = more signal
# [12] = tested on: glycogen synthase kinase-3 (GSK3A per assay name; protocol says GSK3B); assay: compounds binding glycogen synthase kinase-3 – biochemical, small-molecule microarray, 635 nm fluorescence, GSK3A, primary screen (AID 1103); settings: fluorescence 635 nm, higher = more signal; note: the record names both GSK3A and GSK3B
# [13] = target: Epidermal growth factor receptor (Homo sapiens) (UniProt P00533); assay: compounds binding epidermal growth factor receptor – biochemical, small-molecule microarray, 635 nm fluorescence, primary screen (AID 1104); settings: EGFR binding, higher = more signal;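 note: score merges 667 nm emission intensity with spot signal to noise over triplicate slides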
# [14] = target: Follistatin-related protein 3 (Homo sapiens) (UniProt O95633); assay: compounds binding follistatin-related protein 3 – biochemical, small-molecule microarray, 635 nm fluorescence, primary screen (AID 1105); settings: FSTL3 binding, higher = more signal;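 note: score merges emission near 667 nm and signal to noise per printed spot across three slides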
# [15] = target: Dickkopf-related protein 1 (Homo sapiens) (UniProt O94907); assay: small molecules binding DKK1 protein – biochemical, small-molecule microarray, 635 nm fluorescence scan, primary screen (AID 1106); settings: higher = more signal;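 note: score merges emission near 667 nm with signal to noise over three replicate slides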
# [16] = tested on: Inhibin beta A chain (activin A); assay: small molecules binding activin A – biochemical, small-molecule microarray, 635 nm fluorescence scan, primary screen (AID 1107); settings: INHBA, higher = more signal;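 note: mouse activin A protein probed at 4.33 µg/mL on printed slides; score merges bound-protein fluorescence near 667 nm with spot signal-to-noise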
# [17] = hepatitis C replication reporter changes, two-sided – Huh7 cells, luciferase reporter, HCV replication inhibitor project, primary screen (AID 1109); settings: Huh7 HCV replicon luciferase reporter, 48 h; higher = more signal;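 note: huh7 hepatoma cells harbouring a luciferase neomycin HCV replicon reporter; luciferase luminescence as measure of HCV replicon replication; test concentration not given here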
# [18] = target: Left-right determination factor 2 (Homo sapiens) (UniProt O00292); assay: small molecules binding LEFTY2 protein – biochemical, small-molecule microarray, 635 nm fluorescence scan, primary screen (AID 1110); settings: higher = more signal
# [19] = target: Calmodulin-1 (Homo sapiens) (UniProt P0DP23); assay: small molecules binding calmodulin-1 with EGTA – biochemical, small-molecule microarray, Cy5-labelled CALM1, profiling panel (AID 1111); settings: Cy5-CALM1 binding fluorescence, higher = more signal;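 note: labelled calmodulin applied in Tris saline Tween buffer holding calcium plus EGTA and DTT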
# [20] = target: Calmodulin-1 (Homo sapiens) (UniProt P0DP23); assay: small molecules binding Ca-loaded calmodulin-1 – biochemical, small-molecule microarray, Cy5-labelled CALM1, plus calcium, artefact control for SMM control-protein annotation, profiling panel (AID 1112); settings: Cy5-CALM1 binding fluorescence, higher = more signal;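 note: score merges spot fluorescence with signal to noise from triplicate slides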
SMILES,composite z-score [1],z-score [2],composite z-score [3],composite z-score [4],composite z-score [5],composite z-score [6],composite z-score [7],composite z-score [8],composite z-score [9],z-score [10],composite z-score [11],composite z-score [12],composite z-score [13],composite z-score [14],composite z-score [15],composite z-score [16],z-score [17],composite z-score [18],composite z-score [19],composite z-score [20]
COP(=O)(/N=C1/CC(CCCO)=CC(c2ccc(CN3CCCC3)cc2)N1Cc1sc2ccccc2c1Cl)OC (stereo not given),0.101,inactive: 0.922,0.11,0.555,0.317,0.127,0.222,1.11,1.1,inactive: 0.0951,1.62,0.155,-0.17,0.587,1.99,0.956,-2.19,0.351,1.63,1.35
O=P(/N=C1/CC(CCCO)=CC(c2ccc(CN3CCCC3)cc2)N1Cc1cc2c(cc1Br)OCO2)(Oc1ccccc1)Oc1ccccc1 (stereo not given),0.854,inactive: -2.39,2.52,-0.0982,-0.762,0.21,-0.096,-0.0436,0.444,inactive: 0.445,-0.429,-0.276,-0.215,-0.541,-0.554,1.28,-0.427,-0.798,1.36,0.861
O=P(/N=C1/CC(c2ccc(CO)cc2)=CC(c2cccs2)N1Cc1cccc(OC(F)(F)F)c1)(Oc1ccccc1)Oc1ccccc1 (stereo not given),0.992,inactive: -1.14,3.04,0.149,0.155,0.726,0.0267,0.488,0.899,inactive: -0.385,0.295,0.133,0.0856,0.511,-0.483,1.23,-1.34,-0.306,2.1,0.954
COP(=O)(/N=C1/CC(CCCO)=CC(c2ccc(CN3CCCC3)cc2)N1Cc1cccc(OC(F)(F)F)c1)OC (stereo not given),1.18,inactive: -0.888,1.37,0.195,0.996,0.808,0.0378,0.842,0.441,inactive: -1.05,1.39,1.09,0.415,1.24,1.02,1.69,-3.7,0.376,1.65,1.18
CN1/C(=N\P(=O)(Oc2ccccc2)Oc2ccccc2)CC(CCCO)=CC1c1cccs1 (stereo not given),-0.0606,inactive: 0.329,1.71,0.167,0.57,0.454,-0.0117,0.577,0.711,inactive: 0.139,0.432,0.403,0.0352,0.351,0.025,1.07,-0.609,0.216,0.834,1.02
COP(=O)(/N=C1/CC(CCCO)=CC(c2ccc(CN3CCCC3)cc2)N1Cc1cc2c(cc1Br)OCO2)OC (stereo not given),0.408,inactive: -1.95,0.477,0.595,1.57,-0.188,0.286,0.643,1,inactive: -1.66,1.24,0.49,-0.248,0.203,0.843,1.7,-0.645,0.419,1.48,1.28
COP(=O)(/N=C1/CC(c2ccc(CO)cc2)=CC(C2CC2)N1Cc1cc2c(cc1Br)OCO2)OC (stereo not given),0.697,inactive: -2.59,1.7,0.173,0.475,0.426,0.0255,0.316,0.733,inactive: -1.5,1.4,0.619,0.0119,0.692,0.303,1.76,-0.72,0.455,1.33,0.889
O=P(/N=C1/CC(CCCO)=CC(c2cccs2)N1Cc1cc2c(cc1Br)OCO2)(Oc1ccccc1)Oc1ccccc1 (stereo not given),1.35,inactive: 0.141,3.35,0.25,0.317,1.1,0.0238,-0.136,0.628,inactive: -0.103,0.949,0.923,0.316,1.07,0.44,0.553,-0.901,0.321,1.9,0.388
COP(=O)(/N=C1/CC(CCCO)=CC(C2CC2)N1Cc1sc2ccccc2c1Cl)OC (stereo not given),1.38,inactive: -1.09,1.32,1.02,0.392,1.13,0.69,1.1,1.25,inactive: -0.0935,1.36,0.838,0.36,1.1,0.735,1.8,-1.35,0.389,2.23,1.17
CN1/C(=N\P(=O)(Oc2ccccc2)Oc2ccccc2)CC(c2ccc(CO)cc2)=CC1C1CC1 (stereo not given),1.29,inactive: 0.93,3.12,-0.258,-0.0778,0.631,-0.339,-0.336,-0.364,inactive: -0.985,0.415,0.0063,0.0368,-0.195,-0.391,1.14,-0.949,0.306,2.19,0.679
COP(=O)(/N=C1/CC(CCCO)=CC(c2ccc(CN3CCCC3)cc2)N1C)OC (stereo not given),0.0079,inactive: -1.12,1.08,0.288,0.177,-0.654,0.154,0.864,0.794,inactive: -1.1,0.657,0.265,-0.668,0.217,0.155,0.992,0.0103,-0.351,1.34,0.954
O=P(/N=C1/CC(c2ccc(CO)cc2)=CC(C2CC2)N1Cc1cc2c(cc1Br)OCO2)(Oc1ccccc1)Oc1ccccc1 (stereo not given),1.54,inactive: -1.64,3.06,0.427,0.119,1.11,0.163,0.999,0.689,inactive: 0.411,1.23,1.28,0.576,0.956,0.305,1.31,-1.99,0.543,1.76,0.568
CN1/C(=N\P(=O)(Oc2ccccc2)Oc2ccccc2)CC(c2ccc(CO)cc2)=CC1c1cccs1 (stereo not given),0.714,inactive: 0.0787,2.88,-0.0894,-0.929,0.643,0.156,0.29,0.625,inactive: -0.147,0.415,-0.178,0.0779,0.199,-0.171,1.36,1.2,0.0506,1.17,0.864
COP(=O)(/N=C1/CC(c2ccc(CO)cc2)=CC(C2CC2)N1Cc1sc2ccccc2c1Cl)OC (stereo not given),0.811,inactive: -4.7,0.298,0.714,0.65,1,0.733,1.43,1.24,inactive: -2.77,1.45,1.24,0.338,0.972,1.61,1.23,-1.16,1.05,2.37,0.908
O=P(/N=C1/CC(CCCO)=CC(C2CC2)N1Cc1sc2ccccc2c1Cl)(Oc1ccccc1)Oc1ccccc1 (stereo not given),1.4,inactive: 0.863,2.88,0.003,0.0223,0.705,-0.0565,0.528,0.642,inactive: -0.195,0.553,0.0592,-0.338,0.349,0.267,1.01,-0.884,-0.247,1.5,0.791
